Here are results for one compound from ChEMBL document CHEMBL5726243, “Acetylcholinesterase inhibitors and promnesiant serotonin 5-HT4 receptor agonists, their methods of preparation and the pharmaceutical compositions containing the same” (2017).

Sequences of proteins named here, by UniProt entry; tags and fusion partners are left off. Residues count along the entry.
UniProt P22303, 32-614 limits assumed: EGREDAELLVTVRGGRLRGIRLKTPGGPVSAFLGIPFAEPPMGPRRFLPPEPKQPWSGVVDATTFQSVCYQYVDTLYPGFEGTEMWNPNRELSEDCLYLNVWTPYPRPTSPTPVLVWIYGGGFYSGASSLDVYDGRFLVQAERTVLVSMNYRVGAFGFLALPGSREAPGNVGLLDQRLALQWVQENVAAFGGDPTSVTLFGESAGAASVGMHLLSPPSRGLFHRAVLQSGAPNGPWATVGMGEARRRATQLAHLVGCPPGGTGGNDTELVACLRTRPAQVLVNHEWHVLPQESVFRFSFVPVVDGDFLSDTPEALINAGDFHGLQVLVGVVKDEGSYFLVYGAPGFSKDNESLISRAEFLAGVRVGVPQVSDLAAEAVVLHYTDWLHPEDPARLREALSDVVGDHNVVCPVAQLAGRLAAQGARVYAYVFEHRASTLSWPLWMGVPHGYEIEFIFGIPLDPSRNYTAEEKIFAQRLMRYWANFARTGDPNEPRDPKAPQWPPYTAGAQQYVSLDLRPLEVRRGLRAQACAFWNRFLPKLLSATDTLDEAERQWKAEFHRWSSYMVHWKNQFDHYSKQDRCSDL

The structures appear in SMILES notation.

In this test the target is Acetylcholinesterase (Homo sapiens, UniProt P22303). In words: Inhibition Assay: Acetylcholinesterase extracted from human erythrocytes (buffered aqueous solution, ≧500 units/mg, Sigma Aldrich) is diluted in a 20 mM HEPES buffer pH8, 0.1% Triton X-100, to obtain a standard solution with 2.5 units of enzyme activity/ml. 100 μL of a 0.3 mM 5,5-dithiobis(2-nitrobenzoic acid) (DTNB) solution in a pH 7.4 phosphate buffer are introduced into a 96-well plate, follow.

Compound `COc1c(C(N)=O)cc(Cl)c(N)c1CC1CCN(CC2CCCCC2)CC1` yielded an IC50 of 3.73 µM.
